Experimental data as given in patent US8609708B2 (Human BioMolecular Research Institute, priority 2003, dated 2013).

Protein sequences, listed by entry. Tags and fused reporters are not part of them. Lines headed by an entry give the natural chain unless they say otherwise; changes in a name come on top.
UniProt P11509: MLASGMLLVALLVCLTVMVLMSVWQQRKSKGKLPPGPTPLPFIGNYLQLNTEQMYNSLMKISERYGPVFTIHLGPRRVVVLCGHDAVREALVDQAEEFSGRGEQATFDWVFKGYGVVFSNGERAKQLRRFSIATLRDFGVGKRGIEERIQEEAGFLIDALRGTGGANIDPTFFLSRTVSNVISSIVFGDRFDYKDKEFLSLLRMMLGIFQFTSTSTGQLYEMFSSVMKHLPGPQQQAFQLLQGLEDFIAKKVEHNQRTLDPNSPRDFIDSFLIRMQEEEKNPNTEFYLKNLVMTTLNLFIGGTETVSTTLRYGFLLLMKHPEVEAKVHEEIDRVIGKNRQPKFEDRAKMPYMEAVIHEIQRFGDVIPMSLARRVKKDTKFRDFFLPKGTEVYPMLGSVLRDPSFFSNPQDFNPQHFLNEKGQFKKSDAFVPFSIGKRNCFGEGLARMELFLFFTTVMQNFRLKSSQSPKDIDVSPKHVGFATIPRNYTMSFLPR
UniProt P08684, whole entry: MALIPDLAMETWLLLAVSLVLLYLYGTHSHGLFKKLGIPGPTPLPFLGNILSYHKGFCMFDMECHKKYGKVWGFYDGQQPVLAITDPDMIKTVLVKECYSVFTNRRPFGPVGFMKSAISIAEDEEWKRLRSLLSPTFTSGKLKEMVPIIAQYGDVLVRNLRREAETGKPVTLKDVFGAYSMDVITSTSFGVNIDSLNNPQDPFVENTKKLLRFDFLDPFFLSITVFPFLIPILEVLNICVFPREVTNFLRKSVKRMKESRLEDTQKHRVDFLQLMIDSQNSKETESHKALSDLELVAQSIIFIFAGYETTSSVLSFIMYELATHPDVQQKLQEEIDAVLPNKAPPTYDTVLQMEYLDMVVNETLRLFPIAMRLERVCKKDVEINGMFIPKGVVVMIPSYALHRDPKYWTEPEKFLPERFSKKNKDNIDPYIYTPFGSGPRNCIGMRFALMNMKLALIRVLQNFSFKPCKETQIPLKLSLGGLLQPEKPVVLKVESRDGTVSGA

Assays:
[1] = biological target: human CYP2A6 (Homo sapiens (Human), UniProt P11509); conditions: pH 7.5
[2] = biological target: CYP3A4 (Homo sapiens (Human), UniProt P08684)
Method: To gain insight into the selectivity of the synthetic compounds, nicotine, nicotine related alkaloids and nicotine metabolites for inhibition of other CYPs, we examined the major CYP present in human liver (i.e., CYP 3A4). […] A typical incubation mixture ([…] ), 0.5 mM NADP^+, 2.0 mM G6P, 1 U of G6P dehydrogenase, […] inhibitor was added last as to minimize interaction with the protein. After mixing on ice, the reaction was initiated by the addition of substrate and incubated at 37° C. with shaking in air. Organic extracts were injected onto a Hitachi L-7100 system equipped with a Hitachi L-7400 UV detector. Separations were done with an Altex Ultrasphere ODS (4.6 mm×250 mm, 5 μm) column. The analytes were eluted with an isocratic solvent system consisting of water/acetonitrile/methanol (30:10:60, v/v/v) at a flow rate of 1.0 mL/min. […] Quantification of substrate and metabolite was determined from peak areas of the chromatogram and comparison with standard curves. IC50 values were determined as described below.
To measure CYP3A4 activity, testosterone 6-hydroxylation was determined.

| Substance | IC50 [1] [µM] | Selectivity Ratio: IC50 (Inhibition of CYP3A4)/IC50 (Inhibition of CYP2A6) [2] | IC50 ([2]; human, pH 7.5) [µM] |
| --- | --- | --- | --- |
| N,N-Dimethyl-3-(pyridin-3-yl)prop-2-yn-1-amine [Compound 51] | 21.5 |  |  |
| 3-(Pyridin-3-yl)pyridine [Compound 31] |  | 8 | 57 ± 21.3 |
